Article PMC6226371 (Journal of medicinal chemistry, 2018)

Sequences of proteins named here, by UniProt entry; tags and fusion partners are left off.
UniProt P32245, whole entry: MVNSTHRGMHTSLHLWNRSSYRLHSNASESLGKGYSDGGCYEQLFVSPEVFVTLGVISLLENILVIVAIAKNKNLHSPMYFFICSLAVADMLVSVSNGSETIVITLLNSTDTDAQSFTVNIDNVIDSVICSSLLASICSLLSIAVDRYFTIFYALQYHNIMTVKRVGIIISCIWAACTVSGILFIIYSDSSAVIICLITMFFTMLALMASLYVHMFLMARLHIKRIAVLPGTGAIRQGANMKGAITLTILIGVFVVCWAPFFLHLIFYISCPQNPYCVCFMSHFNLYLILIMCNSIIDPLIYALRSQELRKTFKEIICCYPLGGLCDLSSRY

Tests used:
[1] = molecular target: hMC4R PRESTO-Tango plasmid construct (human) (UniProt P32245)
[2] = molecular target: human melanocortin-4 receptor (hMC4R-Flag) (human) (UniProt P32245)

β-arrestin2 recruitment to hMC4R, EC50 (PRESTO-Tango) [1]: 290 nM
cAMP signaling EC50 (AlphaScreen, HEK293 cells stably expressing hMC4R) [2]: 1.8 nM
Binder: HFRW (N-terminal acetyl; D-Phe at 2; C-terminal amide) [CJL-1–14 (Ac-His-DPhe-Arg-Trp-NH2)]
